For this assay, the target named is active p38 alpha enzyme (Upstate Biotechnology) (Homo sapiens, UniProt Q16539). In words: p38α biochemical assay (ATP turnover, luminescent detection, Cambrex PKlight). The following applies: Table 1 Biological Activity. As to the method: The p38α biochemical assay employed is based on measurement of total ATP turnover following enzyme incubation with substrate in the presence of ATP with the use of a luminescent detection reagent (Cambrex PKlight). The assays were performed in 1536-well white opaque plates.
The final volume was 7.5005 μL as prepared prepared from the addition of 5 ul of kinase reaction (p38 alpah+MapkapK2+ATP) with 0.0005 μL compound dissolved in DMSO, and 2.5 ul of the detection reagent. Assay buffer contains the following reagents to give final concentration in the assay: 200 mM Tris, 100 mM MgCl2, 1.5 mM EGTA, 4 mM CaCl2, 20 mM MOPS, 1 mM EDTA, 1% glycerol, 0.1% B-Mecaptoethanol, and 1 mg/ml BSA. Test compounds are pinned using proprietary pintool technology (Kalypsys, Inc) and delivered as […] amounts into the 5 ul mixture of active p38 alpha enzyme (Upstate Biotechnology) and MapkapK2 (Upstate Biotechnology) whole protein as a substrate for phosphorylation in the presence of 1.4 uM final concentration ATP. Reactions are incubated at 30C for 2 hours and detection reagent is added in 2.5 ul/well amounts. Assay is read using a Perkin Elmer Viewlux.

Protein sequences, listed by entry. Tags and fused reporters are not part of them.
UniProt Q16539, whole entry: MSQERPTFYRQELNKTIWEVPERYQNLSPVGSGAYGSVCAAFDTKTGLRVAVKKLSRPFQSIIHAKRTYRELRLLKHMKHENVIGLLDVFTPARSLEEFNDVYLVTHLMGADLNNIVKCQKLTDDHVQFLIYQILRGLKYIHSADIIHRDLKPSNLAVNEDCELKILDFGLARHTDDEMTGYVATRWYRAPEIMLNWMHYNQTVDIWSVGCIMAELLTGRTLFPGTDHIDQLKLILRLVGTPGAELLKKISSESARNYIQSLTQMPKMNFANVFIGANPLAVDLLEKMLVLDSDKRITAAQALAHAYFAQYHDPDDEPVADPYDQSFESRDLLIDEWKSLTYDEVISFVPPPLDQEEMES

As a reminder, the IC50 is the concentration that inhibits the measured activity by half. Lower therefore signals higher potency. For the setting “p38α biochemical assay”, `CC(C)NC(=O)c1csc(-c2oc(CN3CCN(C(=O)c4cccc(I)c4)CC3)nc2-c2ccc(F)cc2)n1` showed an IC50 greater than 1 µM.

`Cc1cccc([N+](=O)[O-])c1C(=O)N1CCC(c2[nH]nc(-c3ccc(F)cc3)c2-c2nc(C(=O)NC(C)C)cs2)CC1` had an IC50 (p38α kinase) greater than 1 µM.

Regarding `CC(C)NC(=O)c1csc(-c2c(-c3ccc(F)cc3)noc2CNC(=O)c2ccc(I)cc2)n1`, the IC50 (p38α kinase) was greater than 1 µM.

In turn, `CC(C)NC(=O)c1csc(-c2oc(CNC(=O)c3ccc(I)cc3)nc2-c2ccc(F)cc2)n1` gave a half-inhibitory concentration (IC50) (p38α biochemical assay) greater than 1 µM.

In the case of `CC(C)NC(=O)c1csc(-c2oc(CNC(=O)c3cccc(I)c3)nc2-c2ccc(F)cc2)n1`, the half-maximal inhibitory concentration (IC50) (p38α biochemical assay) is greater than 1 µM.

Under “p38α kinase”, `CC(C)NC(=O)c1csc(-c2c(-c3ccc(F)cc3)n[nH]c2C2CCN(C(=O)c3ccc(I)cc3)CC2)n1` displayed an IC50 greater than 1 µM.

For `CC(C)NC(=O)c1csc(-c2c(-c3ccc(F)cc3)n[nH]c2C2CCN(C(=O)c3cccc(I)c3)CC2)n1`, the IC50 (p38α kinase) was greater than 1 µM.

Regarding `CC(C)NC(=O)c1csc(-c2oc(CN3CCN(C(=O)c4ccc(I)cc4)CC3)nc2-c2ccc(F)cc2)n1`, the IC50 (p38α biochemical assay) is greater than 1 µM.

The values are drawn from patent US20060252807A1, “Novel ortho-terphenyl inhibitors of p38 kinase and methods of treating inflammatory disorders” (Kalypsys, Inc., priority 2005, published 2006).
